Data on 13 compounds can be found in US20090286772A1.

Protein sequences, listed by entry. Tags and fused reporters are not part of them.
UniProt O14684, whole entry: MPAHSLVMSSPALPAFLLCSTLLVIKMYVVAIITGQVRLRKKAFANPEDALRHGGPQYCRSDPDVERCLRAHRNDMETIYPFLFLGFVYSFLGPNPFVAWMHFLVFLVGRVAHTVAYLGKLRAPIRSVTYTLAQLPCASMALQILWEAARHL

As a reminder, the IC50 is the concentration at which inhibition is half-maximal.

This assay addresses human mPGES-1 (Homo sapiens, UniProt O14684). Description: Microsomal prostaglandin E synthase assay (PGE2 by EIA). The conditions noted are these: read-out: h-CHO IC50 (inhibition of PGE2 synthesis); microsomes from CHO-K1 cells transfected with human mPGES-1; 1 μM PGH2; average of at least n=3. As for the experimental part: Compounds are tested as inhibitors of prostaglandin E synthase activity in microsomal prostaglandin e synthases, whole cell and in vivo assays. These assays measure prostaglandin E2 (PGE2) synthesis using either Enzymatic Immunoassay (EIA) or mass spectrometry. Cells used for microsomal preparation are CHO-K1 cells transiently transfected with plasmids encoding the human mPGES-1 cDNA. Cells used for cell-based experiments are human A549 (which express human mPGES-1). Guinea pigs are used to test the activity of selected compounds in vivo. In all these assays, 100% activity is defined as the PGE2 production in vehicle-treated samples. IC50 and ED50 represent the concentration or dose of inhibitor required to inhibit PGE2 synthesis by 50% as compared to the uninhibited control.
Prostaglandin E synthase microsomal fractions are prepared from CHO-K1 cells transiently transfected with plasmid encoding the human mPGES-1 cDNA. Microsomes are then prepared and the PGES assay begins with the incubation of 5 μg/ml microsomal PGES-1 with compound or DMSO (final 1%) for 20-30 minutes at room temperature. The enzyme reactions are performed in 200 mM KPi pH 7.0, 2 mM EDTA and 2.5 mM GSH-reduced form. The enzymatic reaction is then initiated by the addition of 1 μM final PGH2 substrate prepared in isopropanol (3.5% final in assay well) and incubated at room temperature for 30 seconds. The reaction is terminated by the addition of SnCl2 in 1N HCl (1 mg/ml final). Measurement of PGE2 production in the enzyme reaction aliquots is done by EIA using a standard commercially available kit (Cat #: 901-001 from Assay Designs).
The potency is expressed as IC50 and the value indicated is an average of at least n=3.
`Fc1ccc(-c2nc3c4ccccc4c4ccccc4c3[nH]2)c(C(F)(F)F)c1`: the 50% inhibitory concentration (IC50) amounted to 233 nM.
Regarding `CSc1ccc(C)c(-c2nc3c4ccccc4c4ccccc4c3[nH]2)c1`, the IC50 is 551 nM.
With `OC(c1ccc2c(c1)c1cc(Sc3ccncc3)ccc1c1nc(-c3c(F)cccc3Cl)[nH]c21)(C(F)(F)F)C(F)(F)F` the figure was 9 nM.
With `Clc1ccc2c(c1)c1cc(Br)ccc1c1[nH]c(-c3c(Cl)cccc3Cl)nc21` the figure was 3.9 nM; with `CC(C)(O)c1ccc2c(c1)c1cc(Br)ccc1c1nc(-c3c(Br)cccc3Br)[nH]c21`, 5.5 nM; with `CC(=NO)c1ccc2c(c1)c1cc(Cl)ccc1c1nc(-c3c(Cl)cccc3Cl)[nH]c21`, 8.5 nM.
The result for `OC(c1ccc2c(c1)c1cc(-c3ccc(-c4ccccc4)c(F)c3)ccc1c1nc(-c3c(F)cccc3Cl)[nH]c21)(C(F)(F)F)C(F)(F)F` reads 26 nM; that for `Cc1ccccc1-c1nc2c3ccccc3c3ccccc3c2[nH]1`, 131 nM; that for `Brc1ccccc1-c1nc2c3ccccc3c3ccccc3c2[nH]1`, 50 nM.
For `Fc1cccc(C(F)(F)F)c1-c1nc2c3ccc(Br)cc3c3cc(Br)ccc3c2[nH]1`, the half-maximal inhibitory concentration (IC50) is 5.7 nM.
Regarding `Brc1cncc(Br)c1-c1nc2c3ccccc3c3ccccc3c2[nH]1`, the concentration for half-maximal inhibition (IC50) was 77 nM.
The result for `Fc1cccc(Cl)c1-c1nc2c3ccc(-c4cccnc4)cc3c3cc(-c4cccnc4)ccc3c2[nH]1` reads 33 nM; that for `COC(=O)CCC#Cc1ccc2c(c1)c1cc(Br)ccc1c1nc(-c3c(F)cccc3Cl)[nH]c21`, 1.7 nM.
